# Article PMC12126155
# Like-named read-outs stand apart in the source and are kept apart here.
# Columns and labels:
# Experiment in all cases: fluorescence polarisation
# [1] = target: canonical nucleosome (X. laevis histone octamer on Widom 601 DNA) (X. laevis)
# [2] = target: canonical nucleosome (X. laevis histone octamer on Widom 601 DNA) (X. laevis); remark: listed apart in the source
# [3] = target: canonical nucleosome (X. laevis histone octamer on Widom 601 DNA) (X. laevis); remark: listed apart in the source
substance,measurement,setting,value
CHD1 Arg1072Ala/Arg1074Ala mutant (residues 1-1327) (from UniProt O14646 1-1327) (enzyme),fold reduction in affinity against wild-type CHD1,[1],1.7 fold
same,fold reduction in affinity against wild-type CHD1,[2],1.8 fold
same,fold reduction in affinity against wild-type CHD1,[3],1.2 fold
